The values that follow come from PubChem BioAssay (EPA / NIEHS).

The list shows a part of the results, in another mix than the full data. Active and inactive are the calls of the source. How the source made its calls: active means hit-call score of the fitted dose curve at least 0.9, where 1 is the maximum; inactive means score below 0.9.

This assay is described as follows: ATG_FoxO_CIS: Attagene CIS-FACTORIAL HepG2 Assay for human Forkhead box O (FoxO) (AID 2282943). Conditions: HepG2 Attagene cis-reporter, FoxO element, mRNA; actives raise or lower the signal. The protocol:
ATG_CIS is a cell-based, multiplexed-readout assay that uses HepG2, a human liver cell line, with measurements taken at 24 hours after chemical dosing in a 24-well plate.ATG_FoxO_CIS is one of 52 assay component(s) measured or calculated from the ATG_CIS assay. It is designed to make measurements of mRNA induction, a form of inducible reporter, as detected with fluorescence intensity signals by Reverse transcription polymerase chain reaction (RT-PCR) and Capillary electrophoresis technology.Data from the assay component ATG_FoxO_CIS was analyzed into 1 assay endpoint. This assay endpoint, ATG_FoxO_CIS, was analyzed with bidirectional fitting relative to DMSO as the negative control and baseline of activity. Using a type of inducible reporter, measures of mRNA for gain or loss-of-signal activity can be used to understand the reporter gene at the transcription factor-level as they relate to the gene FOXO1 and FOXO3. Furthermore, this assay endpoint can be referred to as a primary readout, because this assay has produced multiple assay endpoints where this one serves a reporter gene function. To generalize the intended target to other relatable targets, this assay endpoint is annotated to the dna binding intended target family, where the subfamily is forkhead box protein.
Human liver HepG2 cells are transiently transfected with multiple reporter transcription units (MRTUs) in 6-well plates using FuGene 6 reagent (Roche; 3 ml FuGene/1 mg DNA). The MRTU constructs are regulated by a cis-regulating element (promoter). […] A major difference between the CIS and TRANS system is that in CIS activities of endogenous TFs are measured, whereas the TRANS assay evaluates changes in activities of exogenous, chimeric NR-Gal4 proteins. […] At the end of 24 hour incubation, total RNA was isolated using TriZol reagent (Invitrogen). The isolated RNA is then reverse-transcribed using oligo(dT) primer and Mo-MLV reverse transcriptase (Invitrogen) with DNAse I (Ambion) treatment for 30 min. The one-tenth of the produced cDNA was amplified by PCR using Taq DNA polymerase (Invitrogen) and two reporter sequence-specific primers. The PCR products were fluorescently labeled by primer extension with 6-arboxyfluorescein (6-FAM) 5'-labeled reporter sequence-specific primer (2 min at 95 C, 20 s at 68 C and 10 min at 72 C) and these products were digested with 5U of HpaI (New England Biolabs) for 2h at 37 C. The fragments were purified using Qiaquick PCR columns (Qiagen), analyzed on an ABI 3130xL genetic analyzer (Applied Biosystems) with peak positions identified by using a set of X-rhodamine (ROX)-labeled MapMarker1000 molecular weight standards (BioVentures). The raw capillary electrophoresis data was processed using Attagraph software (Attagene).
Regarding `Cc1c([N+](=O)[O-])cccc1[N+](=O)[O-]`, the call was inactive.
In the case of `COc1ccc([N+](=O)[O-])cc1[N+](=O)[O-]` it was “inactive”; in that of `O=[N+]([O-])c1cccc([N+](=O)[O-])c1`, “inactive”; in that of `Cc1cccc([N+](=O)[O-])c1[N+](=O)[O-]`, “inactive”.
In the case of `N#CBr` it was “inactive”.
In the case of `COP(C)(=O)OC` it was “inactive”; in that of `O=[N+]([O-])OCC(CO[N+](=O)[O-])(CO[N+](=O)[O-])CO[N+](=O)[O-]`, “inactive”.
As for `CC(C)N(CCO)C(C)C`, the result was inactive.
For `Cc1ccc([N+](=O)[O-])c([N+](=O)[O-])c1` the value was “inactive”; for `Cc1ccc([N+](=O)[O-])cc1[N+](=O)[O-]`, “inactive”; for `CN(C)CCCl`, “inactive”.
For `CC(C)OP(C)(=O)OC(C)C` the value was “inactive”.
